Amino acid sequences for entries named in this document (tags omitted).
UniProt Q96P20, whole entry: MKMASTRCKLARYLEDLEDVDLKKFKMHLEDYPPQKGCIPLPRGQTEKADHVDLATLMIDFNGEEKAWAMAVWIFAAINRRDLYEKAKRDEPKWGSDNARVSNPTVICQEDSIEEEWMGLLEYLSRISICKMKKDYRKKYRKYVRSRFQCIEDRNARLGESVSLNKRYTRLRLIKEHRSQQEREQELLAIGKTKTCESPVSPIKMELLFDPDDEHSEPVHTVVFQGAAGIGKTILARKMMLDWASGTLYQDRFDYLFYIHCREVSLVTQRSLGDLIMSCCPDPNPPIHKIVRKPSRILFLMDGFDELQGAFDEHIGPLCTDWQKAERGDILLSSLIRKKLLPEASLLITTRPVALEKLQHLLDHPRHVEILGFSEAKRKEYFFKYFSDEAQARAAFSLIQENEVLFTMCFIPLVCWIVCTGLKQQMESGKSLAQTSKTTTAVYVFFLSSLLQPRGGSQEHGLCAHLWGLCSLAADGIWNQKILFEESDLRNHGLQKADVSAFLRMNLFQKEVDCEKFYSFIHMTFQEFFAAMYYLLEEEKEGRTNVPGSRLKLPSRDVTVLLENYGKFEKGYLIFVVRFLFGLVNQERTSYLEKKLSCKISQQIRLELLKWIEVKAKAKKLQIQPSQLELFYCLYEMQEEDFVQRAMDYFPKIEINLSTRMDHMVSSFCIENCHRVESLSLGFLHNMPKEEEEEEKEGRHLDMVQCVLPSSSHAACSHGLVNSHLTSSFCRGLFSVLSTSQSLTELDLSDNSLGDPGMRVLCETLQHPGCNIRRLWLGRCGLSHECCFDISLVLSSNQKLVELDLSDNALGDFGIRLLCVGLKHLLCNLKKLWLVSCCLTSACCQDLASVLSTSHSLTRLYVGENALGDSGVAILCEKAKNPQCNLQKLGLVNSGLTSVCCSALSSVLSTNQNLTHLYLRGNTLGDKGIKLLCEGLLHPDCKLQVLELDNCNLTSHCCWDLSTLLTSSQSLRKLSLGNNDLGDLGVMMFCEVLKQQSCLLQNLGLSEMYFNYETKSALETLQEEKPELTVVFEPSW

According to US12187706B2, “NLRP3 modulators” (INNATE TUMOR IMMUNITY, INC., priority 2019, dated 2025):

Target: NLRP3 (Homo sapiens, UniProt Q96P20)
Assay: Measurement of IL-1β production in PMA-differentiated THP-1 cells (NLRP3 hIL1B)
Format: cell-based
Details: read-out: NLRP3 hIL1B EC50

For `Nc1nc(NCCO)c2c(Cl)cc(-c3cc[nH]n3)cc2n1`, the EC50 was 1080 nM.
